Experimental data reported in BindingDB's records for 10206553 (Sankyo, 1999).

Sequences of proteins named here, by UniProt entry; tags and fusion partners are left off.
UniProt Q64077, whole entry, looked up: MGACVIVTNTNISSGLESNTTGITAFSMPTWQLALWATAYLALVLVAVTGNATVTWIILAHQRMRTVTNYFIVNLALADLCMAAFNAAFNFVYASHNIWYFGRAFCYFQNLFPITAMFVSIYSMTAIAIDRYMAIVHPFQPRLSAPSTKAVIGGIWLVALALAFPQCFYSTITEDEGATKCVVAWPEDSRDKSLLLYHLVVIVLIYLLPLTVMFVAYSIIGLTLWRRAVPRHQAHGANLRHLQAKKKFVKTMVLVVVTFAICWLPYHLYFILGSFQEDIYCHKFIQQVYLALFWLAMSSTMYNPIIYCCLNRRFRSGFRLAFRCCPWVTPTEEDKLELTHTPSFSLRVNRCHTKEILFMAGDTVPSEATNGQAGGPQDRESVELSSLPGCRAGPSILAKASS

Target: Substance-K receptor (Cavia porcellus, UniProt Q64077)
Assay: Inhibitory activity against Neurokinin 2 (NK2) receptor from guinea pig ileum

SMILES: COc1cc(C(=O)N2CO[C@](CCN3CCC4(CC3)C(=O)NCN4c3ccccc3)(c3ccc(Cl)c(Cl)c3)C2)cc(OC)c1OC
- IC50: 160 nM
